Assay results from US12383511B2, “Osteogenic agents and uses thereof” (GoldPorp Pharma Limited, priority 2022, dated 2025).

Tested on: MC3T3-E1 osteoblast
Assay: mRNA expression of osteogenesis-related molecules by real-time PCR
Assay type: cell-based
Conditions: BMP2 30 ng/ml, ASC 400 μM + β-GP 5 mM, F1 5 μM, F4 5 μM, relative to DMSO control, normalized to GAPDH

“BMP2: Bone morphogenetic protein 2, prototypical osteoblastic differentiation agent” was tested, and the “AFT6 mRNA expression” value (D 2) was 1.7 fold, the “ALP mRNA expression” value (D 2) was 4.2 fold and the “ATF3 mRNA expression” value (D 2) was 0.8 fold. The “Axin2 mRNA expression” value (D 2) was 1.9 fold, the “BMP2 mRNA expression” value (D 2) was 2.7 fold and the “BMP7 mRNA expression” value (D 2) was 2.8 fold. For the same substance, the “BSP mRNA expression” value (D 2) was 2.1 fold, the “COL1A1 mRNA expression” value (D 2) was 1.4 fold and the “Fzd1 mRNA expression” value (D 2) was 6.3 fold. For the same substance, the “Fzd2 mRNA expression” value (D 2) was 1.3 fold, the “Fzd5 mRNA expression” value (D 2) was 1.9 fold and the “LRP5 mRNA expression” value (D 2) was 1.0 fold. For the same substance, the “OCN mRNA expression” value (D 2) was 13.2 fold, the “OPN mRNA expression” value (D 2) was 0.8 fold and the “OSN mRNA expression” value (D 2) was 1.5 fold. For the same substance, the “OSX mRNA expression” value (D 2) was 3.1 fold, the “Runx2 mRNA expression” value (D 2) was 3.0 fold and the “VDR mRNA expression” value (D 2) was 1.4 fold. For the same substance, the “Wnt3A mRNA expression” value (D 2) was 2.4 fold, the “Wnt5A mRNA expression” value (D 2) was 1.6 fold and the “Wnt7B mRNA expression” value (D 2) was 1.5 fold. For the same substance, the “Wnt11 mRNA expression” value (D 2) was 3.0 fold, the “AFT6 mRNA expression” value (D 4) was 2.1 fold and the “ALP mRNA expression” value (D 4) was 2.6 fold. The “ATF3 mRNA expression” value (D 4) was 0.7 fold, the “Axin2 mRNA expression” value (D 4) was 3.3 fold and the “BMP2 mRNA expression” value (D 4) was 0.9 fold. The “BMP7 mRNA expression” value (D 4) was 1.4 fold, the “BSP mRNA expression” value (D 4) was 2.0 fold and the “COL1A1 mRNA expression” value (D 4) was 1.2 fold. For the same substance, the “Fzd1 mRNA expression” value (D 4) was 4.4 fold, the “Fzd2 mRNA expression” value (D 4) was 1.1 fold and the “Fzd5 mRNA expression” value (D 4) was 1.4 fold. For the same substance, the “LRP5 mRNA expression” value (D 4) was 0.9 fold, the “OCN mRNA expression” value (D 4) was 4.8 fold and the “OPN mRNA expression” value (D 4) was 1.0 fold. For the same substance, the “OSN mRNA expression” value (D 4) was 1.9 fold, the “OSX mRNA expression” value (D 4) was 1.9 fold and the “Runx2 mRNA expression” value (D 4) was 2.0 fold. For the same substance, the “VDR mRNA expression” value (D 4) was 1.3 fold, the “Wnt3A mRNA expression” value (D 4) was 6.3 fold and the “Wnt5A mRNA expression” value (D 4) was 1.0 fold. For the same substance, the “Wnt7B mRNA expression” value (D 4) was 1.4 fold and the “Wnt11 mRNA expression” value (D 4) was 1.9 fold.
